Reference: US20200010482A1, “INHIBITORS OF BETA SECRETASE” (Janssen Pharmaceutica NV, priority 2017, published 2020)

By UniProt entry, the sequences of proteins in these tests, tags left out. Residues count along the entry.
UniProt P56817, 46-501 limits assumed: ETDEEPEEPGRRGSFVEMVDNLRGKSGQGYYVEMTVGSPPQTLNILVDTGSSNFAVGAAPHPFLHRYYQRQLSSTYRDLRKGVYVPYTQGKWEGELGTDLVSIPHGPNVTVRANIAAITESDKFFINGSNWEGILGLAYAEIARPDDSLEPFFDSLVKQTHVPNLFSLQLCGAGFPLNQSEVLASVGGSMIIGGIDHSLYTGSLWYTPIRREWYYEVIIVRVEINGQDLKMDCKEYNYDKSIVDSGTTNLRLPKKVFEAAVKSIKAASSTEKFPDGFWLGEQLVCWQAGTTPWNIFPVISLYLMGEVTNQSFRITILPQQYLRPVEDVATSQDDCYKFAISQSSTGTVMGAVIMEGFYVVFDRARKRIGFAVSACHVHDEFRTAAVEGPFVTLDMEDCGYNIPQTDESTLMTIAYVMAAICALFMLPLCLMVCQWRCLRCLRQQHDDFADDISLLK
UniProt Q9Y5Z0, 63-518 limits assumed: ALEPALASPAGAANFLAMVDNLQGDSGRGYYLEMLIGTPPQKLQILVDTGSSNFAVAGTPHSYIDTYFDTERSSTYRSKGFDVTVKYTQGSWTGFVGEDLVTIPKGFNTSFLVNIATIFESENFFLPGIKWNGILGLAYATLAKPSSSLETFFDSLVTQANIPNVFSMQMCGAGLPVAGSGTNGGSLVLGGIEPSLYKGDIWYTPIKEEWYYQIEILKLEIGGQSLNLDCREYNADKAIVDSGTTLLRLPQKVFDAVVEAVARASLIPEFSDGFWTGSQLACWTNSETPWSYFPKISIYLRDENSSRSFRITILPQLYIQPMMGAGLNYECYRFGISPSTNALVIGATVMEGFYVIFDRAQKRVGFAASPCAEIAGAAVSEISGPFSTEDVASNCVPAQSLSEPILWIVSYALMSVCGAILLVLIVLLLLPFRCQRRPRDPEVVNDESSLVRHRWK

Experiments:
[1] = biological target: BACE1 (Homo sapiens, UniProt P56817); assay: BACE1 biochemical FRET based assay; details: recombinant BACE1 0.04 μg/ml, 20 μM substrate, 450 min, pH 5.0
Description: (§1) This assay is a Fluorescence Resonance Energy Transfer Assay (FRET) based assay. The substrate for this assay is an APP derived 13 amino acids peptide that contains the ‘Swedish’ Lys-Met/Asn-Leu mutation of the amyloid precursor protein (APP) beta-secretase cleavage site. This substrate also contains two fluorophores: (7-methoxycoumarin-4-yl) acetic acid (Mca) is a fluorescent donor with excitation wavelength at 320 nm and emission at 405 nm and 2,4-Dinitrophenyl (Dnp) is a proprietary quencher acceptor. […] Upon cleavage by BACE1, the fluorophore Mca is separated from the quenching group Dnp, restoring the full fluorescence yield of the donor. The increase in fluorescence is linearly related to the rate of proteolysis.
Briefly in a 384-well format recombinant BACE1 protein in a final concentration of 0.04 μg/ml is incubated for 450 minutes at room temperature with 20 μM substrate in incubation buffer (50 mM Citrate buffer pH 5.0, 0.05% PEG) in the presence of compound or DMSO. Next the amount of proteolysis is directly measured by fluorescence measurement (excitation at 320 nm and emission at 405 nm) at different incubation times (0, 30, 60, 90, 120 and 450 min). For every experiment a time curve (every 30 min between 0 min and 120 min) is used to determine the time where we find the lowest basal signal of the high control. The signal at this time (Tx) is used to subtract from the signal at 450 min. Results are expressed in RFU, as difference between T450 and Tx.
(§2) A best-fit curve is fitted by a minimum sum of squares method to the plot of % Controlmin versus compound concentration. From this an IC50 value (inhibitory concentration causing 50% inhibition of activity) can be obtained. • LC=Median of the low control values=Low control: Reaction without enzyme • HC=Median of the High control values=High Control: Reaction with enzyme
(§3) % Effect=100−[(sample−LC)/(HC−LC)*100]
(§4) % Control=(sample/HC)*100
(§5) % Controlmin=(sample−LC)/(HC−LC)*100

[2] = biological target: BACE2 (Homo sapiens, UniProt Q9Y5Z0); assay: BACE2 biochemical FRET based assay; details: recombinant BACE2 0.4 μg/ml, 10 μM substrate, 450 min, pH 5.0
Description: as §1, with “assay” for “assay is an APP derived 13 amino acids peptide that”, “the beta-secretase,” for “BACE1,”
Briefly in a 384-well format recombinant BACE2 protein in a final concentration of 0.4 μg/ml is incubated for 450 minutes at room temperature with 10 μM substrate in incubation buffer (50 mM Citrate buffer pH 5.0, 0.05% PEG, no DMSO) in the absence or presence of compound. Next the amount of proteolysis is directly measured by fluorescence measurement at T=0 and T=450 (excitation at 320 nm and emission at 405 nm). Results are expressed in RFU (Relative Fluorescence Units), as difference between T450 and TO.
as §2, §3, §4, §5

[3] = test system: Abeta 1-42 produced and secreted by SKNBE2 cells expressing hAPP695; assay: Cellular αLisa assay in SKNBE2 cells, Abeta 1-42; details: SKNBE2 cells expressing hAPP695, 18 hours incubation
Experimental: In two αLisa assays the levels of Abeta total and Abeta 1-42 produced and secreted into the medium of human neuroblastoma SKNBE2 cells are quantified. The assay is based on the human neuroblastoma SKNBE2 expressing the wild type Amyloid Precursor Protein (hAPP695). The compounds are diluted and added to these cells, incubated for 18 hours and then measurements of Abeta 1-42 and Abeta total are taken. Abeta total and Abeta 1-42 are measured by sandwich αLisa. αLisa is a sandwich assay using biotinylated antibody AbN/25 attached to streptavidin coated beads and antibody Ab4G8 or cAb42/26 conjugated acceptor beads for the detection of Abeta total and Abeta 1-42 respectively. In the presence of Abeta total or Abeta 1-42, the beads come into close proximity. The excitation of the donor beads provokes the release of singlet oxygen molecules that trigger a cascade of energy transfer in the acceptor beads, resulting in light emission. Light emission is measured after 1 hour incubation (excitation at […] and emission at 615 nm).
as §2, with “cells preincubated” for “Reaction”, “compound, without biotinylated Ab in the αLisa” for “enzyme”, “cells preincubated without compound” for “Reaction with enzyme”
as §3, §4, §5

[4] = biological target: β-secretase I (BACE1) (Homo sapiens, UniProt P56817); assay: Biochemical assay, automated (CyclOps), BACE1; details: automated CyclOps bioassay
Experimental: (§6) Unless otherwise indicated all biochemicals were purchased from Sigma-Aldrich Chemical Company, Poole, Dorset, U.K. and non-aqueous solvents, of analytical or higher grade, were purchased from ThermoFisher Scientific, Loughborough, U.K. MilliQ water (Elix 5 & MilliQ Gradient; Merck Millipore) was used as the base aqueous solvent to make up the biological buffers. Base assay buffer was prepared by adding a 50 mM solution of citric acid (1.00244; Merck Biosciences) to stirring solution of 50 mM trisodium citrate (1.06448; Merck Biosciences) until a final pH of 5.0 was achieved. […] All assays were routinely carried out in 384-well assay plates (Costar 4514; Corning Life Sciences) and incubated at 37±1° C. for 60 min. prior to reading the endpoint fluorescence intensity. The (7-methoxyl coumarin-4-yl)acetic acid based substrate β-secretase substrate VI (M2465; Bachem) was prepared as a 1 mM stock in 100% DMSO (D/4121/PB08; ThermoFisher). Assay buffer was prepared by adding DMSO to base buffer to a final concentration of 1% (vol./vol.). β-secretase I (18.64 μM; “BACE1”) and β-secretase II (4.65 μM; “BACE2”) were obtained from Janssen Pharmaceutica, Beerse, Belgium and were stored as frozen aliquots (˜20 μl) and thawed as required.
(§7) Typically 12.5 μl of assay buffer was dispensed to rows B to P of the assay plate. To row A was added 18.75 μl of test compound diluted appropriately in assay buffer. A 6.25 μl aliquot of sample was transferred from row A to row B and the sample mixed three times by pipette. The process was repeated down the plate and 6.25 μl of solution discarded at row N post-mix. Rows O and P were designated as the positive and negative controls. To row P was added 6.25 μl base buffer. To rows A to O was added 6.25 μl enzyme (freshly prepared 40 nM BACE1 or 40 nM BACE2) diluted in base buffer. To initiate the assay 6.25 μl of freshly prepared 80 μM substrate, made up by diluting the 1 mM in 100% DMSO solution into HPLC grade water (Optima W6-212; ThermoFisher), was added to all the wells. The assay plate was covered and incubated at 37±1° C. for 60 min. The fluorescence intensity of the wells was read at 360/405 nm (excitation/emission) utilising a nine reads per well protocol (50 ms integration; density of 3, 0.25 mm spacing; SpectraMAX Paradigm plate reader; TUNE cartridge; SoftMax Pro v 6.3 software; Molecular Devices UK Ltd., Wokingham, Berkshire, UK) and outputting the median value of the nine reads as a text file. Data analysis was carried out using Prism software v 6.3 (GraphPad Inc., San Diego, Calif., USA) using the non-linear regression analysis models supplied by the vendor. For IC50 determinations the four parameter logistic variable slope model was used to fit the raw fluorescence intensity data with the ‘bottom’ fixed to the negative control.
(§8) The CyclOps bioassay module consisted of a fraction collection station, a reagent station, liquid handling robotics, plate store and an integrated plate reader (SpectraMAX Paradigm, TUNE cartridge, SoftMax Pro v 6.3; Molecular Devices). The fraction collection station composed of a 384 well collection plate (P-384-240SQ-C; Axygen, Union City, Calif., USA) mounted on a H-portal carriage (Festo AG & Co. KG, Esslingen, Germany), a syringe drive and a two-way six port injection valve fitted with a 200 μl loop (VICI AG International, Schenkon Switzerland). The output of the injection valve was addressable to all the positions of a 384 well collection plate. The reagent station consisted of hydraulically cooled (10-12° C.) aluminium segments; each manufactured to house a SBS microtiter plate footprint. Independent addressable reagent stations were housed within these sections. Where required, custom aluminium housings were used to accommodate standard laboratory plastic ware (e.g. Eppendorf tubes, Falcon tubes, etc.). As and when required the reagent reservoirs were covered and the lids contained holes through which the Teflon-coated probe could access solutions. […]

[5] = biological target: β-secretase II (BACE2) (Homo sapiens, UniProt Q9Y5Z0); assay: Biochemical assay, automated (CyclOps), BACE2; details: automated CyclOps bioassay
Experimental: as §6, §7, §8

BIOCHEMICAL FRET BASED ASSAY pIC50 [1] | BIOCHEMICAL FRET BASED ASSAY pIC50 [2] | AUTOMATED ASSAY BACE1 pIC50 [4] | AUTOMATED ASSAY BACE2 pIC50 [5] | AUTOMATED ASSAY BACE1 pIC50 ([4]; tested form: free base) | AUTOMATED ASSAY BACE2 pIC50 ([5]; tested form: free base) | Compound | CELLULAR αLISA ASSAY IN SKNBE2 CELLS ABETA 42 PIC50 [3]
7.27 | 6.34 |  |  |  |  | COc1cnccc1-c1cnc(OC)c2c1C[C@H]1CSC(N)=N[C@@]1(c1ccc(F)cc1F)C2 | 7.83
7.76 | 6.31 |  |  |  |  | COc1ncc(-c2c(C)nn(C)c2C)c2c1C[C@]1(c3ccc(F)cc3F)N=C(N)SC[C@@H]1C2 | 8.01
7.95 | 7.69 |  |  |  |  | COc1cncc(-c2cnc(OC)c3c2C[C@H]2CSC(N)=N[C@@]2(c2ccc(F)cc2F)C3)c1 | 8.42
7.81 | 7.32 |  |  |  |  | COc1ncc(-c2ccc(=O)n(C)c2)c2c1C[C@]1(c3ccc(F)cc3F)N=C(N)SC[C@@H]1C2 | 8.25
6.69 | 5.23 |  |  |  |  | COc1ncc(-c2cccn(C)c2=O)c2c1C[C@]1(c3ccc(F)cc3F)N=C(N)SC[C@@H]1C2 | 7.21
7.44 | 5.83 |  |  |  |  | COc1ncc(-c2cc(C)ncc2C)c2c1C[C@]1(c3ccc(F)cc3F)N=C(N)SC[C@@H]1C2 | 8.19
9.01 | 8.6 |  |  |  |  | COc1ncc(-c2cccc(O)c2)c2c1C[C@]1(c3ccc(F)cc3F)N=C(N)SC[C@@H]1C2 | 8.84
 |  | 6.84 | 5.57 |  |  | COc1ncc(-c2cccc3cnn(C)c23)c2c1C[C@]1(c3ccc(F)cc3F)N=C(N)SC[C@@H]1C2 [Compound 127] | 
 |  | 8.41 | 8.92 |  |  | COc1ncc(-c2cccs2)c2c1C[C@]1(c3ccc(F)cc3F)N=C(N)SC[C@@H]1C2 | 

Continued, compound first:

Compound | BIOCHEMICAL FRET BASED ASSAY pIC50 [1] | BIOCHEMICAL FRET BASED ASSAY pIC50 [2] | AUTOMATED ASSAY BACE1 pIC50 [4] | AUTOMATED ASSAY BACE2 pIC50 [5] | AUTOMATED ASSAY BACE1 pIC50 ([4]; tested form: free base) | AUTOMATED ASSAY BACE2 pIC50 ([5]; tested form: free base) | CELLULAR αLISA ASSAY IN SKNBE2 CELLS ABETA 42 PIC50 [3]
COc1ncc(-c2cnccc2C)c2c1C[C@]1(c3ccc(F)cc3F)N=C(N)OC[C@@H]1C2 (relative stereo) | 6.85 | 5.21 |  |  |  |  | 7.79
COc1ncc(CO)c2c1C[C@]1(c3ccc(F)cc3F)N=C(N)SC[C@@H]1C2 | 7.43 | 6.7 |  |  |  |  | 8
COCc1cnc(OC)c2c1C[C@H]1CSC(N)=N[C@@]1(c1ccc(F)cc1F)C2 | 7.91 | 7.55 |  |  |  |  | 8.6
CC#CCOc1ccc(F)c([C@]23Cc4c(OC)ncc(-c5ccccc5OC)c4C[C@H]2CSC(N)=N3)c1 |  |  | 5.39 | 4.82 |  |  | 
COc1ncc(-c2c(C)noc2C)c2c1C[C@]1(c3cc(OCCC(C)(C)C)ccc3F)N=C(N)SC[C@@H]1C2 |  |  | 6.6 | 5.49 |  |  | 
COc1ccc(-c2cnc(OC)c3c2C[C@H]2CSC(N)=N[C@@]2(c2cc(OCc4nccn4C)ccc2F)C3)c(C)c1 |  |  | 7.54 | 6.79 |  |  | 
COc1cccc(OC)c1-c1cnc(OC)c2c1C[C@H]1CSC(N)=N[C@@]1(c1ccc(F)cc1F)C2 |  |  | 6.41 | 5.66 |  |  | 
COc1ccc(-c2cnc(OC)c3c2C[C@H]2CSC(N)=N[C@@]2(c2cc(OCc4cc(C)on4)ccc2F)C3)c(C)c1 |  |  | 8.3 | 8.22 |  |  | 
COc1ncc(-c2ccccc2C)c2c1C[C@]1(c3cc(OCCOc4ccc(F)cc4)ccc3F)N=C(N)SC[C@@H]1C2 |  |  | 7.1 | 6.13 |  |  | 
COc1ccc(F)cc1-c1cnc(OC)c2c1C[C@H]1CSC(N)=N[C@@]1(c1cc(OCc3ccccc3C)ccc1F)C2 |  |  |  |  | 5.52 | 5.52 | 
